Assay results: patent US7045532B2 (Millennium Pharmaceuticals, Inc., priority 1999, dated 2006)

Protein sequences, listed by entry. Tags and fused reporters are not part of them. Residues count along the entry.
UniProt F1RRW5, 34-1309 limits assumed: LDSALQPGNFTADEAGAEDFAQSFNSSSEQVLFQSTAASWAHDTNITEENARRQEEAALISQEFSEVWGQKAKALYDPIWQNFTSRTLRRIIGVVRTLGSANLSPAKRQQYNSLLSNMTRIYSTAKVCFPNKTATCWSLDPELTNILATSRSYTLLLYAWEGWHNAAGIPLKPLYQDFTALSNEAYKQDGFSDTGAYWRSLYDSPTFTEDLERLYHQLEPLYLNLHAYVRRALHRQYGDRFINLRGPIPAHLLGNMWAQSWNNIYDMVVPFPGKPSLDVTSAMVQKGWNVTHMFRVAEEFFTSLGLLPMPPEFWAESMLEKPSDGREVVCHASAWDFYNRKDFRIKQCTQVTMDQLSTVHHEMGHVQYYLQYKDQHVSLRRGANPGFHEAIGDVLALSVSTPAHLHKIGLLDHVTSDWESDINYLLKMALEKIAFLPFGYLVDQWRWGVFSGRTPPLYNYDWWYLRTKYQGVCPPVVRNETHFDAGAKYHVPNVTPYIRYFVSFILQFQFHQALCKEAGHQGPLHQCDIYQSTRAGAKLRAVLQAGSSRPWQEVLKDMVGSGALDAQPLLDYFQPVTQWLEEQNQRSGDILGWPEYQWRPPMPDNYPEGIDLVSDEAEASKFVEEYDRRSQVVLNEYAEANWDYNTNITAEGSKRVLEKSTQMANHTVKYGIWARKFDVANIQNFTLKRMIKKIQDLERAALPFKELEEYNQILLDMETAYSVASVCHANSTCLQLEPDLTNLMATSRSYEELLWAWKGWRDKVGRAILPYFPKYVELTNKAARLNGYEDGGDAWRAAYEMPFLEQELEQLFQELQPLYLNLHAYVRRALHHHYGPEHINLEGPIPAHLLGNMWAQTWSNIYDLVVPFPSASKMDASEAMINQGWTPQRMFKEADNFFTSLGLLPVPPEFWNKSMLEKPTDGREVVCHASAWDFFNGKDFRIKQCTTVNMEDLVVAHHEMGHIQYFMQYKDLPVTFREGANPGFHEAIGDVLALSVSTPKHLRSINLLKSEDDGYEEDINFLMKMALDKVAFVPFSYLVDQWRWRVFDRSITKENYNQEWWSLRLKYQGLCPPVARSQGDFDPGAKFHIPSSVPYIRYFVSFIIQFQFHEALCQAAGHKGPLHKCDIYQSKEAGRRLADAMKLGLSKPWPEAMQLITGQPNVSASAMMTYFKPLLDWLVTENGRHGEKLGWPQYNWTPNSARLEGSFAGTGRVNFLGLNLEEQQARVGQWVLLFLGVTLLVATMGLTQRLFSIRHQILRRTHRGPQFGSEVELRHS
UniProt P00730, 111-419 limits assumed: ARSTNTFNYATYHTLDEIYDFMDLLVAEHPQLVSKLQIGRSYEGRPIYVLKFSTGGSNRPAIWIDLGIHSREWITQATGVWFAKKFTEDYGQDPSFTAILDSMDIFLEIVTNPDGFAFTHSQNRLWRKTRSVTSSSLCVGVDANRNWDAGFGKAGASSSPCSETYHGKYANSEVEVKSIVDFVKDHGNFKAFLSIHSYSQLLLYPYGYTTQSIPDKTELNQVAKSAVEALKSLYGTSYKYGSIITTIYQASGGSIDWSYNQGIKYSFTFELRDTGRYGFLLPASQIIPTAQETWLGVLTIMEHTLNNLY
UniProt Q9BYF1, 18-739 limits assumed: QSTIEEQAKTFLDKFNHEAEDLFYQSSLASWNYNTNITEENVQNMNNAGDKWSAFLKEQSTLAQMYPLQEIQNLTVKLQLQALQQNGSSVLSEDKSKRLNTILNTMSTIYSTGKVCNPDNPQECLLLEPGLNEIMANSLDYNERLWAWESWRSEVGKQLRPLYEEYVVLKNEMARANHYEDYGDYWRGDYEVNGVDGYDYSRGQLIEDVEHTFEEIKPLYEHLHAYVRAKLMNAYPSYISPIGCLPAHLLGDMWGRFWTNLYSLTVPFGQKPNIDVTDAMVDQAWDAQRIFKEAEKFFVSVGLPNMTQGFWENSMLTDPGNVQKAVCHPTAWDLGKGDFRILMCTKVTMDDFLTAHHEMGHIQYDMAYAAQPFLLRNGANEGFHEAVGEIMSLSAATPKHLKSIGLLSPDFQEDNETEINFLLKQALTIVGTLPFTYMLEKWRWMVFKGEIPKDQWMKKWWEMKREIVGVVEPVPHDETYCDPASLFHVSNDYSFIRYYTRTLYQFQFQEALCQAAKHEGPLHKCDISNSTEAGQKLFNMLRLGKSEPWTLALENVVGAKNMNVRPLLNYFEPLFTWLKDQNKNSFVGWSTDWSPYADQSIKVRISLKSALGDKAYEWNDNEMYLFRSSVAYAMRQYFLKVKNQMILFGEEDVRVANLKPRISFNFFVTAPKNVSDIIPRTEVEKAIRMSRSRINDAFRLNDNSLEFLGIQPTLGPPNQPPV

How the values were obtained:
ACE (Sigma, A2580) = ACE (Sigma, A2580) (Sus scrofa, UniProt F1RRW5); assay: ACE enzymatic activity assay; settings: read-out: ACE Activity; Ki class; compounds tested in 5% DMSO, 12 concentrations
Carboxypeptidase A = Carboxypeptidase A (Bos taurus, UniProt P00730); assay: Carboxypeptidase A activity assay; settings: read-out: Carboxypeptidase A Activity; Ki class; compounds tested in 5% DMSO, 12 concentrations
ACE-2 = ACE-2 (Homo sapiens, UniProt Q9BYF1); assay: Kinetic constants for ACE-2 hydrolysis of peptides (reversed phase LC); assay type: biochemical; settings: ACE-2 hydrolysis of the peptide, pH 6.5, room temperature

Row | Compound | Ki (ACE (Sigma, A2580)) [µM] | Ki (Carboxypeptidase A) [µM] | Km (ACE-2) [µM] | kcat (ACE-2) [s⁻¹]
1 | O=C(O)[C@H](CC#Cc1ccccc1)N[C@H](CCc1ccccc1)C(=O)O | > 50 | 10 to 50 |  | 
2 | CSCC[C@H](NC(=O)[C@@H]1CCCN1C(=O)CNC(=O)[C@H](CCCCN)NC(=O)[C@H](Cc1cnc[nH]1)NC(=O)[C@H](CO)NC(=O)[C@H](CC(C)C)NC(=O)[C@H](CCCNC(=N)N)NC(=O)[C@@H]1CCCN1C(=O)[C@H](CCCNC(=N)N)NC(=O)[C@@H](N)CCC(N)=O)C(=O)N1CCC[C@H]1C(=O)N[C@@H](Cc1ccccc1)C(=O)O |  |  | 8 | 14
